A short description of this data set: Iron dialysability assay (in vitro dialysable iron from fortified dough). The conditions noted are these: dough from whole-grain wheat flour fortified with 50 mg/kg iron; normalized to dough fortified with ferrous sulfate; means of 4-5 experiments; ** = significantly different from ferrous sulfate (p < 0.05).

Results on 1 substance are retold here after patent US20060078594A1, “Iron complex” (Conopco, Inc., d/b/a UNILEVER, priority 2004, published 2006).

For the substance “Iron 2-hydroxy-3-methoxy benzaldehyde (o-vanillin)”, the Relative availability is given as 2.4**.
